Experiments:
CENP-HI^Δ56KM = target: T1, CENP-HI^Δ56KM (human, UniProt Q9H3R5 1-247; Q92674 57-756; Q9BS16 1-269; Q9NSP4 1-180); experiment: SEC
T1 sequence (looked up) 1: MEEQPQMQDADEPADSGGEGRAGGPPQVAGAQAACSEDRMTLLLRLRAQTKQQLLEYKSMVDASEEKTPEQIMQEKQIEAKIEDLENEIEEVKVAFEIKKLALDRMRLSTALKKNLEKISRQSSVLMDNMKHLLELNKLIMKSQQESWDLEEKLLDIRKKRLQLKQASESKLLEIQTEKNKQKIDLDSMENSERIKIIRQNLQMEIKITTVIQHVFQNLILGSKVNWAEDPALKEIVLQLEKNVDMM
T1 sequence (looked up) 2: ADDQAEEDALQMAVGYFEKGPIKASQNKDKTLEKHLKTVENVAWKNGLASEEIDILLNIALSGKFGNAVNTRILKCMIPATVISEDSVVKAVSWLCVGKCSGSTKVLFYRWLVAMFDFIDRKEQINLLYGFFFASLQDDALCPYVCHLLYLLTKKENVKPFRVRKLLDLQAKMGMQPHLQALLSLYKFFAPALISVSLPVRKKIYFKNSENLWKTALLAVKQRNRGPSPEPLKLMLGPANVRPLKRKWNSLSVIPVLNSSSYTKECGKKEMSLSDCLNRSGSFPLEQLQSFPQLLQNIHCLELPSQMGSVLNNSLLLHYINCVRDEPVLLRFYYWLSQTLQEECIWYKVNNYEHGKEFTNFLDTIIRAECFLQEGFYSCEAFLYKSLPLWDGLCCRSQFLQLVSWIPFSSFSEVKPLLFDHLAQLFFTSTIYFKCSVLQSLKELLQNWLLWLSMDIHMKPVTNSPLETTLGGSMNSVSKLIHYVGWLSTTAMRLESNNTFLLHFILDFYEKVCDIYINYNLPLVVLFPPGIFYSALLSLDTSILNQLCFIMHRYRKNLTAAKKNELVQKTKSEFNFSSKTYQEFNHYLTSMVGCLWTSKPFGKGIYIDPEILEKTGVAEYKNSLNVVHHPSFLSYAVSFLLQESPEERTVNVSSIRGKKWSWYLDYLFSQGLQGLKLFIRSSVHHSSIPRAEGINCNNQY
T1 sequence (looked up) 3: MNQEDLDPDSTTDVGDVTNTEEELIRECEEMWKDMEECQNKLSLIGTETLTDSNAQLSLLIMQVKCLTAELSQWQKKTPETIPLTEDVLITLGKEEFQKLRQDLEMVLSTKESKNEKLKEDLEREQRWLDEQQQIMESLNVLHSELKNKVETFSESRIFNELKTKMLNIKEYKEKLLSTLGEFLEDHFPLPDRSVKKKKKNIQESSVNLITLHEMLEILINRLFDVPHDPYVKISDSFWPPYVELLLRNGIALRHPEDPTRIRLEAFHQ
T1 sequence (looked up) 4: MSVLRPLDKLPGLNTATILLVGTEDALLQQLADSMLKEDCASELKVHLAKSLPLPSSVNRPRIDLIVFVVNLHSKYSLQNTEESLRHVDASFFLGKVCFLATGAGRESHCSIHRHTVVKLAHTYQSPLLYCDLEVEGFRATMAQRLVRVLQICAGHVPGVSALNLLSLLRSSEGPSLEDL

CENP-C^[…]HI^Δ56KMLN = CENP-C^[…]HI^Δ56KMLN (human); experiment: SEC
CENP-P = target: T2, CENP-P (human, UniProt Q6IPU0 1-288); experiment: AUC
T2 sequence (looked up): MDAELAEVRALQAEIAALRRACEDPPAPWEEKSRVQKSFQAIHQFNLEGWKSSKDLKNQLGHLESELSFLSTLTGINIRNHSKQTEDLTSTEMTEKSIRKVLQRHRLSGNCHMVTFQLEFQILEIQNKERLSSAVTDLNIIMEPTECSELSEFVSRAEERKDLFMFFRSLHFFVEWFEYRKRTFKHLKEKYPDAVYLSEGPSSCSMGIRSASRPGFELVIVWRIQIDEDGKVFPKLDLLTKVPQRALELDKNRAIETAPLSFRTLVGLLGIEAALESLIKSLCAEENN

CENP-QU = target: T3, CENP-QU (human, UniProt Q7L2Z9 1-268; Q71F23 1-418); experiment: AUC
T3 sequence (looked up) 1: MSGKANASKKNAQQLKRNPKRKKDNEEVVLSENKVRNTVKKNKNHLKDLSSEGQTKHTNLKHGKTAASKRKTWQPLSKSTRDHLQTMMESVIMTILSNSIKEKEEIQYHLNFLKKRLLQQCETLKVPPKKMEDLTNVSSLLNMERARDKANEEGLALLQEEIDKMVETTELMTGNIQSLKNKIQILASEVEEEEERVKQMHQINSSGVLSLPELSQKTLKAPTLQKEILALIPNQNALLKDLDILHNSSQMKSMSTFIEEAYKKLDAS
T3 sequence (looked up) 2: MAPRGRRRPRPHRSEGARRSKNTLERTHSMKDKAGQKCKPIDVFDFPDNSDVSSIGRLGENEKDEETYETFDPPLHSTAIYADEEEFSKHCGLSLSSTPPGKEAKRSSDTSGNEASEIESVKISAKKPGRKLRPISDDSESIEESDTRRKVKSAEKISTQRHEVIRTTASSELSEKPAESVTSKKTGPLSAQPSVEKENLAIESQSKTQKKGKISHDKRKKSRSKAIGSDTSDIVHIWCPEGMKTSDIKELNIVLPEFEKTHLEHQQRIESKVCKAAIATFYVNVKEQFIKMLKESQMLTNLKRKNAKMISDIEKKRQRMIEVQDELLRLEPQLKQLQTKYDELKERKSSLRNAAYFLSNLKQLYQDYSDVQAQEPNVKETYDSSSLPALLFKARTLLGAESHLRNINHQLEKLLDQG

B1: CENP-LN (complex)
chain 1: MDSYSAPESTPSASSRPEDYFIGATPLQKRLESVRKQSSFILTPPRRKIPQCSQLQEDVDPQKVAFLLHKQWTLYSLTPLYKFSYSNLKEYSRLLNAFIVAEKQKGLAVEVGEDFNIKVIFSTLLGMKGTQRDPEAFLVQIVSKSQLPSENREGKVLWTGWFCCVFGDSLLETVSEDFTCLPLFLANGAESNTAIIGTWFQKTFDCYFSPLAINAFNLSWMAAMWTACKMDHYVATTEFLWSVPCSPQSLDISFAIHPEDAKALWDSVHKTPGEVTQEEVDLFMDCLYSHFHRHFKIHLSATRLVRVSTSVASAHTDGKIKILCHKYLIGVLAYLTELAIFQIE
chain 2: not shown
B1: binds (CENP-HI^Δ56KM).

B2: CENP-OPQUR (complex, human)
chain 1: MEQANPLRPDGESKGGVLAHLERLETQVSRSRKQSEELQSVQAQEGALGTKIHKLRRLRDELRAVVRHRRASVKACIANVEPNQTVEINEQEALEEKLENVKAILQAYHFTGLSGKLTSRGVCVCISTAFEGNLLDSYFVDLVIQKPLRIHHHSVPVFIPLEEIAAKYLQTNIQHFLFSLCEYLNAYSGRKYQADRLQSDFAALLTGPLQRNPLCNLLSFTYKLDPGGQSFPFCARLLYKDLTATLPTDVTVTCQGVEVLSTSWEEQRASHETLFCTKPLHQVFASFTRKGEKLDMSLVS
chain 2: T2 sequence (looked up)
chain 3: T3 sequence (looked up) 1
chain 4: T3 sequence (looked up) 2
chain 5: MPVKRSLKLDGLLEENSFDPSKITRKKSVITYSPTTGTCQMSLFASPTSSEEQKHRNGLSNEKRKKLNHPSLTESKESTTKDNDEFMMLLSKVEKLSEEIMEIMQNLSSIQALEGSRELENLIGISCASHFLKREMQKTKELMTKVNKQKLFEKSTGLPHKASRHLDSYEFLKAILN
B2: binds (CENP-C^[…]HI^Δ56KMLN).

B3: CENP-O (natural protein, human, UniProt Q9BU64 1-300, looked up)
chain: B2 chain 1
In the case of B3, the “stoichiometry N” value (CENP-P) is reported as 1.

B4: CENP-OP (complex, human)
chain 1: B2 chain 1
chain 2: T2 sequence (looked up)
B4 was tested, and the “stoichiometry N” value (CENP-QU) was 1.
